Reference: US8410309B2, “Phenoxy carboxylic acid compounds and compositions for delivering active agents” (Emisphere Technologies, Inc., priority 1999, dated 2013)

Experiment: Insulin oral delivery, serum human insulin by ELISA
Settings: previous experiments, no delivery agent compound
Description: Oral dosing (PO) compositions of delivery agent compound and human zinc insulin (minimum 26 IU/mg available from Calbiochem—Novabiochem Corp, La Jolla, Calif.) were prepared in deionized water. […] The pH was adjusted to about 7 to 8.5 with NaOH or HCl. […] The final delivery agent compound dose, insulin dose and dose volume amounts are listed below in Table 8.
The typical dosing and sampling protocols were as follows.
Serum insulin levels were determined with an Insulin ELISA Test Kit (Kit # DSL-10-1600 from Diagnostic Systems Laboratories, Inc., Webster, Tex.), modifying the standard protocol in order to optimize the sensitivity and linear range of the standard curve for the volumes and concentrations of the samples used in the present protocol. […] The five values for each time point were averaged and the results plotted as serum insulin concentration versus time.

human insulin [reference compound]
levels of human insulin following oral dosing with human insulin alone: no measurable levels
